Assay results published in patent US8372973B2, “Prokineticin 1 receptor antagonists” (Janssen Pharmaceutica N.V., priority 2005, dated 2013).

System: rat ileal tissues

Row | Compound | blockade of the pro-secretory effect of PK1
1 | NC1=N[C@H](O)[C@H]2[C@H]3O[C@]4(O)O[C@@H]([C@@H](O)[C@@]2(N1)[C@@H]4O)[C@]3(O)CO [Tetrodotoxin, reference compound] | not blocked
2 | CN1[C@@H]2CC[C@H]1C[C@@H](OC(=O)C(CO)c1ccccc1)C2 (some centres unmarked) [Atropine, reference compound] | not blocked
